Here are results for 1 compound from ChEMBL document CHEMBL3272027, “Chemoimmunotherapy of cancer” (1977).

As a reminder, the T/C is the result in the treated group divided by that in the control group, in per cent.

Structures are written as SMILES.

In this experiment the test system is P388. Kind of experiment: In vivo antitumor activity against mouse P388 cells in 3PS31 test system at 100 mg/kg administered on day 1, 5 and 9 relative to control.

For `O=C(CCCSCCCl)Nc1ccc(P(=O)(O)O)cc1`, the T/C turned out to be 105%.
